Results as given in patent publication US11542262B2, “Phosphatidylinositol 3-kinase inhibitors” (NANJING ZHENGXIANG PHARMACEUTICALS CO., LTD., priority 2019, dated 2023).

Amino acid sequences for entries named in this document (tags omitted). A change or cut given only in a name is not applied to a line headed by its entry.
UniProt O00329, whole entry, species assumed: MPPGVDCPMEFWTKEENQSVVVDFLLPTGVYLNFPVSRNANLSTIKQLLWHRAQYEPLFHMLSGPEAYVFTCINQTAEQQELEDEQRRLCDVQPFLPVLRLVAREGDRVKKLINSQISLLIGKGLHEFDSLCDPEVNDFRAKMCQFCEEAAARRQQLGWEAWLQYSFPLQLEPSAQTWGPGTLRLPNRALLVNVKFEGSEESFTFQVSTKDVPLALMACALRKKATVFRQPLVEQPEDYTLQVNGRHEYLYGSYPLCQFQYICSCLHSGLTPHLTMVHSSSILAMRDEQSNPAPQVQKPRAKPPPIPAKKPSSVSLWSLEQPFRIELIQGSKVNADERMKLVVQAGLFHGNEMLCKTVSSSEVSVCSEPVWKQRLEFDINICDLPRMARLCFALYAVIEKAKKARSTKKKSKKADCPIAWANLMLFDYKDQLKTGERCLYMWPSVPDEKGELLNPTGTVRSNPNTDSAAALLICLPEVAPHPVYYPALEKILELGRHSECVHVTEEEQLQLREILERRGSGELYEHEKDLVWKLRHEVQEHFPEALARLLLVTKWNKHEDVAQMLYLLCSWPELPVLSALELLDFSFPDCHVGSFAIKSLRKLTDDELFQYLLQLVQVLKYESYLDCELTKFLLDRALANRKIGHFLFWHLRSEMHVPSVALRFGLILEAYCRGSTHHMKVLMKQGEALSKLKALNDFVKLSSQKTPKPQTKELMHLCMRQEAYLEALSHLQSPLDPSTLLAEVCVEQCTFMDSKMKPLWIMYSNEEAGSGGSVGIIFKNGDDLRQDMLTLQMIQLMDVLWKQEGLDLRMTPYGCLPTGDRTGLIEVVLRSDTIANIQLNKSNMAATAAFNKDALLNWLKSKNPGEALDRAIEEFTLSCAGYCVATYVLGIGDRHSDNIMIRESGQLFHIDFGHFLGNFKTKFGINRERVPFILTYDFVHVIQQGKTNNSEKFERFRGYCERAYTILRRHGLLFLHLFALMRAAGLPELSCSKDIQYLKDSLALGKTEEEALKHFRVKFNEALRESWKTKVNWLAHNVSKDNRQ

Tests used:
[1] = molecular target: PI3Kδ (Homo sapiens, UniProt O00329); assay: ADP-Glo luminescent assay, enzymatic activity of PI3K delta; assay type: biochemical; conditions: ATP 25 μM; read-out: PI3K delta (nM) inhibitory activity (IC50)
Method: Enzymatic activity of PI3K isoforms: Enzymatic activity of the class I PI3K isoforms in the presence of the compounds of Table 1 was measured using ADP-Glo luminescent assay against PI3Kα, PI3Kβ, PI3Kδ and PI3Kγ with ATP concentration at 25 μM. IPI-549 was used as the reference compound. The compounds would be tested from 1 or 10 μM, 3-fold dilution for 10 doses, in duplicate.
Compound preparation: Dilute a compound to 100× of the final desired highest inhibitor concentration in reaction by 100% DMSO. Transfer 100 μl of this compound dilution to a well in a 96-well plate and serially dilute it with DMSO for a total of 10 concentrations.
Kinase reaction: Prepare a solution of PI3K in 1× kinase buffer at 2-fold the final concentration of each reagent in the assay. Control wells contain 1× kinase buffer without enzyme. Prepare substrate solution of PIP2 substrate and ATP in 1× kinase reaction buffer at 2-fold of the final concentration. Add concentration substrate solution to each well to the final concentration. Cover the assay plate, shake to mix, and incubate at room temperature for 1 hour. Add 5 μl of ADP-Glo reagent to each well to stop the reaction. Mix briefly with a quick spin, shake slowly on the shaker for 120 min. Add 10 ul Kinase Detection Reagent to each well, shake 1 min, equilibrate for 30 min before reading on a luminescence plate reader. […]

[2] = molecular target: T1, PI3K delta (Homo sapiens, UniProt O00329); assay: Raji cell assay: phosphorylation of AKT in anti-IgM stimulated Raji cells (AlphaLISA); assay type: cell-based; conditions: pAKT, read-out: PI3K delta Raji cell (nM) cellular activity (IC50)
T1 construct: endogenous in cells; host or cells: Raji

IC50 [1]: 65 nM
IC50 [2]: 133 nM
Compound: C[C@H](NC(=O)c1c(N)nn2cccnc12)c1cc2cccc(C#Cc3cnn(C)c3)c2c(=O)n1-c1ccccc1 [IPI-549, reference compound]
